The record followed here is publication PMC6332508, “A Promising PET Tracer for Imaging of α7 Nicotinic Acetylcholine Receptors in the Brain: Design, Synthesis, and in Vivo Evaluation of a Dibenzothiophene-Based Radioligand” (Molecules, 2015).

By UniProt entry, the sequences of proteins in these tests, tags left out. Residues count along the entry.
UniProt P36544, 23-502: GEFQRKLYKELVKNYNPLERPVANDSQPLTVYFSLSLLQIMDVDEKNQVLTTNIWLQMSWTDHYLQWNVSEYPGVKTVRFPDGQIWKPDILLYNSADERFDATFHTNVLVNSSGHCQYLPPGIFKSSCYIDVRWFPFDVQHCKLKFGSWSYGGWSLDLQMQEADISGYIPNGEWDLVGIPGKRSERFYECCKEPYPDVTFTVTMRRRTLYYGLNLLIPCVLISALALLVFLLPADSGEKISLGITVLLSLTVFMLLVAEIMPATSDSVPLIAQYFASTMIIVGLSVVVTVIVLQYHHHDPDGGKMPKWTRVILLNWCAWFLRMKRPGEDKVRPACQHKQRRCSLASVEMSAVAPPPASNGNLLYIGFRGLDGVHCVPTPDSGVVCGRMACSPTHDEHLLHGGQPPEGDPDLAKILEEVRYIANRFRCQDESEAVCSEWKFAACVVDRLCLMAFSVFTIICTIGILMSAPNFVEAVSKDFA

One may read the Ki as the dissociation constant of the complex between target and ligand, obtained from inhibition or displacement.

The experiment addresses T1, human α7 nAChR (Homo sapiens, UniProt P36544).
T1 construct: expressed in transfected cells; host or cells: SH-SY5Y
Kind of experiment: Radioligand displacement at human α7 nAChR, [3H]methyllycaconitine, SH-SY5Y cells. Type of experiment: binding. Conditions: stably transfected SH-SY5Y cells, read-out: Affinity (Ki in nM) hα7. Background: Displacement assays read how much labelled ligand stays bound in the presence of the test substance.

Regarding `O=S1(=O)c2cc(N3CCN4CCC3CC4)ccc2-c2cccc(F)c21` [Compound 10b, 3-(1,4-Diazabicyclo[3.2.2]nonan-4-yl)-6-fluorodibenzo[b,d]thiophene 5,5-dioxide], the inhibitory constant (Ki) came to 0.84 ± 0.16 nM.
